Source: paper PMC6936329 (Cell chemical biology, 2019)

Tests used:
[1] = tested on: CDK2/cyclin A/E, CDK1/cyclin B, CDK7/cyclin H, CDK9/cyclin K/T1, CAMKIIα/β/γ, and GSK-3α/β
[2] = tested on: CDK1, CDK2, CDK7, CDK9, GSK3α/β and CAMKIIγ/δ

Compound: CCN1CCN(Cc2ccc(Nc3ncc(F)c(-c4cc(F)c5nc(C)n(C(C)C)c5c4)n3)nc2)CC1 [abemaciclib]
- activity against secondary kinases [1]: active
- binding to CDK1, CDK2, CDK7, CDK9, GSK3α/β and CAMKIIγ/δ [2]: bound
